The experiment in a line: Evaluated for the binding affinity to porcine choroid plexus at 5-hydroxytryptamine 2C receptor binding site by using [3H]-MES as a radioligand.

By Ki is commonly meant the dissociation constant of the complex between target and ligand, obtained from inhibition or displacement. Low readings indicate a stronger hold on the target, high ones a looser hold on the target. In turn, `CN1C[C@@H](NS(=O)(=O)N(C)C)C[C@@H]2c3cccc4c3c(cn4C)C[C@H]21` [MESULERGINE] registered a Ki of 1.5 nM.

The values are drawn from BindingDB's records for doi:10.1021/jm00384a001 (1987).
